Chains of the proteins cited; added tags and fusions are not shown. Residues count along the entry.
UniProt O14763, 56-182, stated change not applied: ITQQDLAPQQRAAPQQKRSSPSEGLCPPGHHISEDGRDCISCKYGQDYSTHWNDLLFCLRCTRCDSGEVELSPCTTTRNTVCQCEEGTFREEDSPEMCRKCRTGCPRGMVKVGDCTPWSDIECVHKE

In publication PMC9719290:

Target: monkey TRAIL (monkey)
Experiment: SPR

fold affinity against rat TRAIL: > 10 fold
Substance: soluble DR5-Fc (sDR5-Fc) chimeric protein (from UniProt O14763 56-182) (Fc fusion)
